Screening results (PubChem)
An excerpt weighted towards active compounds, which were near 16% of everything screened.
TDP1 block – inhibitors of human tyrosyl-DNA phosphodiesterase TDP1. Q9NUW8. recombinant TDP1, AlphaScreen DNA substrate cleavage. Potency, µM (series often up to 130 µM), inactives show at the top dose activity change, negative = inhibition, hits mostly inhibitors. 350,000 compounds, 0.28% hits; also: potency is read from the fitted curve at half-maximal effect; % is scaled to controls: 0 for no effect and ±100 for the full control effect; nearly all actives have a fitted effect of over 40% in size
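Signal: AlphaScreen proximity between streptavidin donor and anti-FITC acceptor beads on intact substrate. Reaction: Tdp1 1 nM, substrate 15 nM final, 5 min RT after 15 min compound preincubation.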
DT40 TDP1 no CPT – qHTS for Inhibitors of human tyrosyl-DNA phosphodiesterase 1 (TDP1): qHTS in cells in absence of CPT | DT40 Tdp1-/- hTDP1 cells, no CPT, ATP luminescence, 48 h | Potency, µM (titrated, usually from 46.2 µM), for inactives: top-dose activity change, negative = growth inhibition, hits mostly inhibitors | 420,000 compounds, 15% hits; also: potency is read from the fitted curve at half-maximal effect; % is scaled to controls: 0 for no effect and ±100 for the full control effect; nearly all actives have a fitted effect of over 55% in size
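Seeded 400 DT40-hTDP1 cells/well (vehicle DMSO, no 20 nM CPT); pinned compounds; ≥48 hr at 37 °C; CellTiter-Glo luminescence as viability measure.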
uPA generation – inhibitors of cell surface uPA generation; Potency, µM (highest dose often 38.3 µM), for inactives: top-dose activity change, negative = inhibition, actives largely listed as inhibitors; 330,000 compounds, 0.31% hits; cell surface uPA generation assay, qHTS; active = well fitted inhibition curve with a large enough effect; inconclusive = small, poorly fitted or top-dose-only effect; inactive = no such curve, though single readings can be large or run the other way; tested in mouse RAW 264.7 cells; also: potency is read from the fitted curve at half-maximal effect; % is scaled to controls: 0 for no effect and ±100 for the full control effect; nearly all actives have a fitted effect of over 55% in size
miR-21 FLuc – miR-21 reporter, rising signal | HeLa miR-21 FLuc reporter, luciferase, 48 h | Potency, µM (top dose mostly 38.3 µM), inactives show at the highest dose reporter change, positive = more light | 340,000 tested, under 10 active | AID 2288; active = well fitted rising curve with a large enough effect; inconclusive = small, poorly fitted or top-dose-only effect; inactive = no such curve, though single readings can be large or run the other way;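 note: % of control where 0% means no effect; miR-21 action dims this reporter so a rising signal means less miR-21 action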
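HeLa cells endogenously expressing miR-21, stably carrying CMV-driven firefly luciferase with a downstream miR-21 binding site, 2000 cells/well. Titrations up to approximately 40 uM, 48 hours; luciferase luminescence read.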
TDP1 cell CPT – DT40-hTDP1 cell growth loss with CPT; chicken DT40 Tdp1-/-;hTDP1 cells + 20 nM CPT, ATP luminescence, 48 h; Potency, µM (top dose mostly 46.2 µM), without a hit: top-dose activity change, negative = growth inhibition, actives largely listed as inhibitors; 420,000 compounds, 12% hits; also: potency is read from the fitted curve at half-maximal effect; % is scaled to controls: 0 for no effect and ±100 for the full control effect; nearly all actives have a fitted effect of over 55% in size
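Chicken DT40 Tdp1-/- cells stably complemented with human TDP1 were seeded at 400 cells/well in medium containing 20 nM camptothecin, exposed to pin-transferred compounds, and grown at 37 °C for at least 48 hr. Viability was read as ATP luminescence.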
* hit, by the source's call; ? = inconclusive; . = not tested or not shown. Unless noted, calls follow the shape of the dose curve; as a rule, active = well fitted curve in the direction sought with a large enough effect; inconclusive = small, poorly fitted or top-dose-only effect, or another doubt; inactive = no such curve, though single readings can be large; an effect the other way counts as inactive or inconclusive.

1) Cc1ccc2nc(-c3ccc(NC(=S)NC4CC(C)(C)NC(C)(C)C4)cc3)sc2c1
2) CCC(=O)NC(=S)Nc1ccc(-c2nc3ccc(C)cc3s2)cc1
3) CCC(=O)NC(=S)Nc1ccc(-c2nc3ccccc3s2)cc1
4) Cc1ccc(C2(C)NC(=O)N(CC(=O)Nc3ccc(-c4nc5ccc(C)cc5s4)cc3)C2=O)cc1 (configuration not stated)
5) O=C(NN1CCOCC1)c1sc2cccc(F)c2c1Cl
6) O=C(NNc1c(F)c(F)cc(F)c1F)c1ccco1
7) O=C(NNc1c([N+](=O)[O-])cc(C(F)(F)F)cc1[N+](=O)[O-])c1ccco1
8) Cc1ccc(F)c(S(=O)(=O)NC(=O)C2(C)CCN2C(=O)C2(c3ccc(Cl)cc3)CC2)c1 (configuration not stated)

Assay by compound | 1 | 2 | 3 | 4 | 5 | 6 | 7 | 8
TDP1 block | 0% | -3% | 3% | 4% | -5% | 0% | 10% | .
DT40 TDP1 no CPT | 6.5µM* | ? | -24% | 10µM* | -11% | 2% | 23µM* | -4%
uPA generation | -8% | 0% | 4% | -2% | 2% | -7% | -14% | .
miR-21 FLuc | 36% | -68% | -68% | -36% | -1% | . | 25% | .
TDP1 cell CPT | 3.7µM* | 21µM* | -15% | ? | -21% | -20% | 26µM* | -10%

9) CC1(C(=O)NS(=O)(=O)c2ccc(C#N)cc2)CCN1C(=O)C1(c2ccccc2)CCCC1 (configuration not stated)
10) Cc1ccc(F)c(S(=O)(=O)NC(=O)C2(C)CCN2C(=O)C2(c3ccc(Cl)cc3)CCC2)c1 (configuration not stated)
11) CC1(C(=O)NS(=O)(=O)c2ccc(Cl)cc2)CCN1C(=O)C1(c2ccc(Cl)cc2)CCC1 (configuration not stated)
12) Cc1ccc(S(=O)(=O)NC(=O)C2(C)CCN2C(=O)C2(c3ccc(Cl)cc3)CCC2)cc1 (configuration not stated)
13) CC1(C(=O)NS(=O)(=O)c2ccc(C#N)cc2)CCN1C(=O)C1(c2ccc(Cl)cc2)CC1 (configuration not stated)
14) Cc1cc(C)nc(/N=C(\N)Nc2cc([N+](=O)[O-])ccc2C)n1
15) CCN(CC)/C(N)=N/c1nc(C)cc(C)n1
16) Cc1cc(C)cc(N/C(N)=N/c2nc(C)cc(C)n2)c1

Assay by compound | 9 | 10 | 11 | 12 | 13 | 14 | 15 | 16
TDP1 block | . | . | . | . | . | -2% | 0% | 0%
DT40 TDP1 no CPT | 13µM* | ? | ? | -8% | -7% | -21% | 2% | ?
uPA generation | . | . | . | . | . | 3% | -6% | ?
miR-21 FLuc | . | . | . | . | . | -2% | 0% | 17%
TDP1 cell CPT | 12µM* | 16µM* | 21µM* | -9% | -25% | ? | 6% | ?

Other entries:
Second line of a record: TDP1 block	DT40 TDP1 no CPT	uPA generation	miR-21 FLuc	TDP1 cell CPT
#17 CCCCc1ccc(N/C(N)=N/c2nc(C)cc(C)n2)cc1
 : -3%	5.2µM*	-15%	23%	?
#18 Cc1ccc(N/C(N)=N/c2nc(C)cc(C)n2)cc1
 : 3%	21µM*	-3%	-10%	15µM*
#19 Cc1cc(C)nc(/N=C(\N)Nc2ccccc2-c2ccccc2)n1
 : 6%	12µM*	-6%	12%	16µM*
#20 Cc1cccc(N/C(N)=N/c2nc(C)cc(C)n2)c1
 : -2%	16µM*	-2%	9%	?
#21 CCOc1ccccc1/C=C(/NC(=O)c1ccccc1)C(=O)NCC(=O)O
 : 1%	0%	0%	-2%	6%
#22 Cn1c(=O)c(-c2ccc(Cl)cc2)nc2cnc(OCc3ccccc3)nc21
 : .	12%	.	.	0%
#23 COc1cc(NC(N)=S)c(OC)cc1Cl
 : 1%	-25%	-6%	12%	-3%
#24 CCN(/C(N)=N/c1nc(C)cc(C)n1)c1ccccc1
 : .	16µM*	-7%	-13%	-30%
#25 COc1cc(N/C(N)=N/c2nc(C)cc(C)n2)c(OC)cc1Cl
 : -4%	18µM*	-26%	15%	15µM*
#26 Cc1cc(C)nc(/N=C(\N)Nc2cccc([N+](=O)[O-])c2)n1
 : -5%	?	3%	-5%	?
#27 CC(=O)Nc1cccc(N/C(N)=N/c2nc(C)cc(C)n2)c1
 : 2%	-12%	-2%	2%	26µM*
#28 CCC(=O)Nc1ccc(N/C(N)=N/c2nc(C)cc(C)n2)cc1
 : 1%	15µM*	7%	11%	13µM*

Reprinted at random: 3 records from the list, in no set order.
Second line of a record: TDP1 block	DT40 TDP1 no CPT	uPA generation	miR-21 FLuc	TDP1 cell CPT
#10 Cc1ccc(F)c(S(=O)(=O)NC(=O)C2(C)CCN2C(=O)C2(c3ccc(Cl)cc3)CCC2)c1 (configuration not stated)
 : .	?	.	.	16µM*
#28 CCC(=O)Nc1ccc(N/C(N)=N/c2nc(C)cc(C)n2)cc1
 : 1%	15µM*	7%	11%	13µM*
#9 CC1(C(=O)NS(=O)(=O)c2ccc(C#N)cc2)CCN1C(=O)C1(c2ccccc2)CCCC1 (configuration not stated)
 : .	13µM*	.	.	12µM*
